Protein sequences, listed by entry. Tags and fused reporters are not part of them.
UniProt P31389, whole entry: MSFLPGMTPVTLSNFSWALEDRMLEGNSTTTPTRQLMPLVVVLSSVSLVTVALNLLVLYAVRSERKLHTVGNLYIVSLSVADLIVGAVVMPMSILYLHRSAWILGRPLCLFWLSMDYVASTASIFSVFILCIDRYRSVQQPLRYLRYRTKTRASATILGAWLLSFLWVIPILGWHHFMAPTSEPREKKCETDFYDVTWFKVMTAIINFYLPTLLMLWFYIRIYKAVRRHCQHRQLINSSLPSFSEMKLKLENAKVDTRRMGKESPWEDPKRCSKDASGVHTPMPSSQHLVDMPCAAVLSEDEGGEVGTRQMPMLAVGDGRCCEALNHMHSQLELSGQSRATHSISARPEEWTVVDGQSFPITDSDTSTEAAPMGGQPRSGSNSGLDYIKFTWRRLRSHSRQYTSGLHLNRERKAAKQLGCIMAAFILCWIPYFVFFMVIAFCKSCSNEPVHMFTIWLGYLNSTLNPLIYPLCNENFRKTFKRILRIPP

In patent US7872025B2, “Optically active isomers of ketotifen and therapeutically active metabolites thereof” (Bridge Pharma, Inc., priority 1999, dated 2011):

Molecular target: T1, histamine H1-receptor (Cavia porcellus, UniProt P31389)
T1 construct: from tissue; host or cells: guinea pig cerebellum membranes
Assay: Binding to histaminergic receptors (3H-pyrilamine binding)
Set-up: species or system guinea pig
Experimental: Briefly, membranes from guinea pig cerebellum are incubated with ^3H-pyrilamine and varying concentrations of the test compound(s). The specific binding of the radioactive ligand to the receptor is defined as the difference between total binding and nonspecific binding, determined in the presence of an excess of unlabelled ligand. The results are expressed as percentage of specific binding in the presence of compounds. […] These parameters are obtained by Hill equation curve fitting using Sigmaplot™ software.

CN1CCC(=C2c3ccccc3CC(=O)c3sccc32)CC1 (racemic) [ketotifen, 4-(1-methyl-4-piperidyline)-4H-benzo(4,5) cyclohepta-(1,2-b) thiophene-10-one]
histamine H-1 receptor antagonism / blockade: histamine H-1 antagonists
